The record followed here is patent publication US20100256109A1, “Azetidines As EP2 Antagonists” (priority 2007, published 2010).

Sequences of proteins named here, by UniProt entry; tags and fusion partners are left off.
UniProt P43116, whole entry: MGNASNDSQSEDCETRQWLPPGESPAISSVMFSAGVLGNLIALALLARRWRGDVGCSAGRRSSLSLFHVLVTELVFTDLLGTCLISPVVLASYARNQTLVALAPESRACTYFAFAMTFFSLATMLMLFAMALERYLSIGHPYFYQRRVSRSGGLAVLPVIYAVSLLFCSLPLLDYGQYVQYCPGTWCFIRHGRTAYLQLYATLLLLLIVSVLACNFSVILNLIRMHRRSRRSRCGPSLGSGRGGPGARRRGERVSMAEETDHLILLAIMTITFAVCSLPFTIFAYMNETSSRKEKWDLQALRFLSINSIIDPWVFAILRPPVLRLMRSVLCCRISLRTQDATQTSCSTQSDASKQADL

By Ki is commonly meant a measure of affinity in units of concentration, obtained from inhibition or displacement.

The target of this assay is recombinant human EP-2 receptor (Homo sapiens, UniProt P43116). Kind of assay: In vitro antagonist potency against recombinant human prostaglandin E2 (EP-2) receptor in CHO cells (cAMP). To be noted: read-out: EP2 Ki; CHO cells expressing recombinant human EP-2 receptor, stimulated with PGE2 5 nM; cAMP readout; Ki from IC50 by Cheng-Prusoff. Here is the method: 1.0 Measurement of In Vitro Antagonist Potency (IC50) of Compounds Against Recombinant Human Prostaglandin E2 Receptor in CHO Cells.
The prostaglandin E2 (EP-2) receptor is Gs coupled and agonism of the receptor by PGE2 results in activation of intracellular adenylate cyclase enzymes that synthesise the second messenger signalling molecule, adenosine 3′,5′-cyclic monophosphate (cAMP). CHO cells expressing the recombinant human EP-2 receptor are stimulated with PGE2 (5 nM) equivalent to approximately […] values to give the maximal cAMP signal. Decreases in cAMP levels following treatment of stimulated recombinant EP-2 cells with potential antagonist compounds were measured and potency (IC50) calculated as follows.
A Chinese hamster ovary (CHO) cell line stably transfected with full length cDNA encoding human Prostaglandin E2 was established using standard molecular biology methods. Test compounds were dissolved in dimethyl sulphoxide (DMSO) at 4 mM. 11 point half log unit increment dilution series of test compound were prepared in DMSO then diluted 1 in 40 in a buffer comprised of phosphate buffered saline (PBS) and 0.05% pluronic F-127 surfactant. Freshly cultured cells at 80-90% confluence were harvested and re-suspended in 90% growth media/10% DMSO. The cells were frozen using a planar freezer and stored in frozen aliquots in cryovials in liquid nitrogen until the day of the experiment. A vial of cells was defrosted in a 37° C. water bath for 2 min, then transferred to 10 ml of Dulbecco's Modified Eagle's Medium (DMEM). The cells were then centrifuged for 5 min at 1000 g and the pellet re-suspended at 1,000,000 cells/ml in DMEM. 5,000 cells (5 ul) were added to 5 ul of the compound dilution series in a 384 well assay plate and pre-incubated for 30 min at 37° C. 5 ul of agonist (15 nM PGE2 in PBS to give 5 nM FAC) was added and plates further incubated for 90 min at 37° C. The relative cAMP concentration in each well was then measured using a β-galactosidase enzyme fragment complementation method purchased in kit form as the Discoverx cAMP II kit from GE Healthcare, UK. […] Sigmoidal curves were fitted to plots of log10 inhibitor concentration vs. percent effect. IC50 estimates were determined as the concentration of test compound giving an effect half way between the bottom and top asymptotes of the sigmoidal dose response curve. Each experiment included an IC50 determination for the literature compound as a standard to track assay consistency and allow fair comparison between values obtained in different experiments. The EC50 of PGE2 is used in combination with the ligand concentration in the assay to determine Ki values for antagonist dose responses using the Cheng-Prusoff equation. […]

On to `O=C(c1ccc(Cl)cc1)N1CC(Cn2nnc(-c3ccc(F)c(F)c3)n2)(C(=O)O)C1`, for which the inhibition constant (Ki) stood at 24.5 nM. The figure for `COc1ccc(-c2nnn(CC3(C(=O)O)CN(C(=O)c4ccc(F)cc4)C3)n2)cc1OC` is 85.1 nM; for `O=C(c1ccc(F)cc1)N1CC(Cn2nnc(-c3cccc(F)c3)n2)(C(=O)O)C1` it is 42.1 nM; for `CS(=O)(=O)c1ccc(-c2nnn(CC3(C(=O)O)CN(C(=O)c4ccc(F)cc4)C3)n2)cc1` it is 105 nM.
